We go through 2 compounds from patent US20260382635A1, “NITROSYL-HEME FORMULATIONS FOR THE TREATMENT OF CARDIOVASCULAR CONDITIONS, HEMOLYSIS, AND THE STABILIZATION OF CELL-FREE HEME MOLECULES” (published 2026).

One experiment has as its system platelets. In words: Platelet activation in platelet-rich plasma (flow cytometry). The method, then: Samples were prepared using heme (25 μM), NO (20 μM), albumin (75 μM) with and without GSH (250 μM) under normoxic or anoxic conditions. Fresh blood was drawn into sodium citrate tubes with the first tube being discarded and platelet rich plasma (PRP) collected after sedimentation of the red blood cells. Platelet activation was measured as described previously.^82 First, PRP was diluted 1:7 with oxygenated or deoxygenated PBS buffer, then albumin samples were mixed with this diluted PRP in 1:10 ratio. After 5 minutes of incubation at 37 °C, 2 μM ADP was added to all test samples except negative vehicle controls, followed by 10 additional minutes incubation. 20 μL of each sample was subsequently added to PAC-1 FITC (BD™ FITC Mouse Anti-Human PAC-1, 25 μg/mL (1 mL); catalog no. 340507; clone PAC-1 RUO (GMP))—which labels activated platelets—and CD61 (BD™ PerCP Mouse Anti-Human CD61, 3 g/mL (1 mL); catalog no. 340506; clone RUU-PL7F12 RUO (GMP))—which labels all platelets- and incubated at room temperature in the dark for 20 minutes and then fixed in 1% buffered formaldehyde. Platelets were sorted using a BD FACSCalibur Analyzer. Data were collected and analyzed using BD CellQuest Pro (v6.0). Gating strategy was based on side and forward scattering compared to red blood cells and then also for activated platelets. Platelets were labelled along the x-axis and activation on the y-axis. Activation was taken as the upper right quadrant divided by the sum of the two right quadrants (FIG. 14).
GSNO can inhibit platelets in vitro.^59,60 As GSNO is generated by the reaction, an alternate method to was employed to generate NO-ferroheme without GSNO by first reducing hemin with 1.6 fold excess sodium dithionite and then adding an equivalent of NO to the pre-formed ferrous heme at a final concentration of 2 μM (FIG. 4B). […] Finally, to establish that sGC is activated with NO-ferroheme in platelets, cGMP was detected with and without ODQ, a sGC inhibitor, and tadalafil, a phosphodiesterase (PDE) inhibitor (FIG. 4C). cGMP is increased with NO-ferroheme treatment vs controls (FIG. 4C, solid hexagons, p=0.0177), consistent with sGC activation and cGMP-dependent signaling.

Experiment [1] in a line: Kinetics of reductive nitrosylation of ferric heme in MeOH:PBS buffer (UV-Vis/stopped-flow). The method, then:
All individual spectra and pseudo-first-order kinetics were performed using a thermostatted (23/37 °C±0.2) Cary 50, Cary 100, or HP8453 UV-Visible spectrophotometer (Agilent Technologies) running either Cary WinUV Scan (v 5.23.1042, Agilent Technologies), Cary WinUV Scanning Kinetics (v3.00(183), Agilent Technologies), or UV-Visible ChemStation (vB.04.01 [61], Agilent Technologies) for reactions ferric heme reactions with NO and without glutathione in PBS and MeOH/PBS buffer (1 part PBS in 5 parts methanol) unless otherwise noted. For pseudo-first-order reactions with fast observed rates such as the ferric heme reaction with NO and reduced glutathione, a thermostatted SX-20 stopped-flow instrumented fitted with a direct mount photodiode array (Applied Photophysics, Ltd.) in an anaerobic chamber was used. Stopped-flow data were collected using Pro-Data SX (v2.5.1852.0, Applied Photophysics). Samples were prepared either in a glove box under nitrogen atmosphere or using a Schlenk line under argon atmosphere with oxygen-free buffers and solvents.
Hemin stock (5 mM) was prepared regularly in 20 mN anaerobic NaOH solution, sealed in a septum capped vial. The concentration of hemin was precisely determined by absorption spectroscopy using the extinction coefficient at 385 nm of 58.4 mM^−1 cm^−1.^78 Reduced glutathione stocks (25-100 mM) were made regularly in deaerated PBS and sealed in septum capped vials. Methanol was deaerated separated before mixing in a 5:1 ratio with deaerated PBS to make MeOH:PBS buffer for spectroscopy experiments. The precise concentration of NO from bubbling or from ProliNONOate was determined either by titrating with excess oxyhemoglobin and calculating the amount of methemoglobin produced by fitting absorption spectra to normalized basis spectra or using an ozone-based chemiluminescent analyzer. Stock concentrations of ProliNONOate were also verified through absorption spectroscopy, using the extinction coefficient at 248 nm of 8.4 mM^−1 cm^−1.^79 A sample stopped-flow experiment was performed as follows: 25 μM hemin and 250 µM hemin were loaded into one syringe, and a range of NO concentrations between 125 μM and 2.5 mM were loaded in the other syringe and the syringe contents were mixed 1:1 in the stoppled flow. For radical trapping experiments, the above reaction conditions were replicated plus the addition of 50 mM DMPO in deaerated MeOH:PBS solution.
A 5:1 mixture of methanol to phosphate buffered saline (PBS, pH 7.4)—herein referred to as the MeOH:PBS buffer—was used to solubilize free heme at concentrations amenable to UV-visible spectroscopic characterization. […]
Addition of 125 μM GSH with 12.5 μM ferric heme and only 125 μM NO results in rapid formation a product with the same spectroscopic signature, indicating NO-ferroheme formation (FIG. 1B, note markedly different time scale from FIG. 1A). […] The GSH-facilitated product lacks the characteristic dithionite absorbance at 315 nm.
Varying the concentrations of NO or GSH under pseudo first-order conditions allows for determination of the reaction dependence on GSH and NO, yielding calculated second-order rate constants of 7000 M^−1s^−1 and 2300 M^−1s^−1, respectively (FIG. 1F).

Each structure is given as a SMILES string.

Turning to `C=CC1=C(C)c2cc3[nH]c(cc4nc(cc5[nH]c(cc1n2)c(C)c5CCC(=O)O)C(CCC(=O)O)=C4C)c(C)c3C=C.[Fe+2]`, the “platelet activation, effect in words” value with platelets (ferrous heme in the absence of NO, 2 μM ADP (FIG. 4B)) is “did not inhibit platelet activation; in fact, this species slightly augmented activation”. Further, the “platelet inhibition, thiol-catalyzed vs dithionite-generated NO-ferroheme” value with platelets (thiol-catalyzed vs dithionite-generated without glutathione) is on record as “equally effective inhibitors”. In addition, in experiment [1] (role: product, 1250 μM NO, 12.5 μM ferric heme, no GSH, anaerobic, 23 °C), the “t1/2 of NO-ferroheme formation” value turned out to be 5.67 min. Also, the “increase in kobs of NO-ferroheme formation on addition of a reduced thiol” value in experiment [1] (role: product, tenfold less NO, otherwise analogous conditions) is reported as “more than 500 fold”.
As to `[N]=O`, in the experiment on platelets (NO alone 2 μM, 2 μM ADP), the “platelet activation, effect in words” value is “inhibited platelet activation”. Further, the “observed 2nd-order rate constant (NO dependence)” value in experiment [1] (role: substrate, NO varied, [GSH] 250 μM, ferric heme, MeOH:PBS, 23 °C, anaerobic) came out at 2300 M⁻¹ s⁻¹.
